{"source": "patent US20070203190A1", "about": "“Hydroxylamines and derivatives for the inhibition of complement activation” (priority 2006, published 2007)", "origin": "cited, not measured here", "tested_on": "complement activation", "conditions": "in vivo animal models", "data": [{"substance": "5G1.1-scFv: a humanized monoclonal anti-C5 antibody [Compound 5G1.1-scFv]", "values": [{"measurement": "suppression of complement activation", "result": "suppress complement activation"}]}]}
